Measurements: EP4821483A1, “SOLID DISPERSION INCLUDING HETEROCYCLE DERIVATIVE, METHOD FOR PREPARING SAME, AND PHARMACEUTICAL COMPOSITION INCLUDING SAME” (dated 2026)

Test: Solubility in FaSSIF pH 6.5 eluate (Pion Micro-dissolution system)
Conditions: After 12 hours, 37±2 °C, 250 rpm, 20 mL media
Text: For the obtained solid dispersion, the solubility was confirmed in a FaSSIF pH 6.5 eluate using a Pion Micro Diss instrument.

concentration of compound 1a dissolved in the FaSSIF pH 6.5 eluate: 39.16 µg/mL
Structure (SMILES): CS(=O)(=O)[C@H]1CCOc2cc3sc(C(=O)Nc4cc(Cl)nc(Oc5ccc(Cl)cc5)c4)cc3cc21
